Measured values from patent US8143315B2, “Salts of the active substance rasagiline” (priority 2006, dated 2012).

In the case of rasagiline tartrate, the “solubility in citric acid solution” value (Granulation 1 with mannitol (55%)) is reported as “high” and the “solubility in citric acid solution” value (Granulation 2 without mannitol) is reported as “high”.

Read-outs that look alike come from different tables or passages of the source.
